Source: patent publication US20160031868A1, “BENZIMIDAZOLONE DERIVATIVES AS BROMODOMAIN INHIBITORS” (GILEAD SCIENCES, INC., priority 2013, published 2016)

Molecular target: T1, BRD4-2 (Homo sapiens, UniProt O60885)
T1 construct: made in house; host or cells: Escherichia coli
Assay: BRD4-2 Ligand KI assay (TR-FRET displacement of Cy5 labeled probe)
Format: binding
Details: 10 nM labeled ligand, 0.5 nM BRD4-2; Ki from IC50 by Cheng and Prusoff; read-out: BRD4-2 Ligand K2
Protocol: Binding of the two tandem bromodomains, BRD4-I and BRD4-2, to a Cy5 labeled probe/ligand (Compound 201-A) were measured using a homogeneous time resolved fluorescence resonance energy transfer (TR-FRET) assay.
The labeled ligand specifically binds BRD4-1 and BRD4-2 and can be displaced by a small molecule inhibitor that shares a similar or overlapping binding site. BRD4-I and BRD4-2 were expressed and purified from Escherichia coli as N-terminal His6-tagged proteins. A Eu-cryptate labeled anti-His antibody (Perkin Elmer) was used to specifically bind BRD4. […] Assays were performed in 50 mM Hepes (pH 7.5), 150 mM NaCl, 0.1 mg/ml BSA, 0.01% (v/v) Brij, 0.5% (v/v) DMSO and 10 nM labeled ligand at the following concentrations for each BRD4 isoform: 2 nM BRD4-1 and 0.5 nM BRD4-2. After an assay reaction time of 60 minutes at 25° C., binding was measured with 2 nM Eu-cryptate labeled anti-His antibody. TR-FRET signal was detected on an Envision plate reader (Ex: 320 nm; Em: 615/665 nm; 100 μs delay and 200 μs read window). Data were normalized based on a positive (2 μM I-BET) and negative (DMSO) controls and IC50 values were calculated from the fit of the dose-response curves to a four-parameter equation. All IC50 values represent geometric mean values of a minimum of four determinations. […]

**Q.** How did the Ki turn out when `Cc1noc(C)c1-c1cc(C(O)(c2cnccn2)c2c(F)cccc2F)c2[nH]c(=O)[nH]c2c1` (stereo not shown) [Example 49, 4-((2,6-difluorophenyl)(hydroxy)(pyrazin-2-yl)methyl)-6-(3,5-dimethylisoxazol-4-yl)-1H-benzo[d]imidazol-2(3H)-one] was run?
**A.** 2.7 nM
